Here are results for one substance from publication PMC9820828, “Anti-Melanogenesis Effects of a Cyclic Peptide Derived from Flaxseed via Inhibition of CREB Pathway” (International Journal of Molecular Sciences, 2022).

The series deals with B16F10 melanoma cells. Nature of the series: Cell viability (MTT assay). Type of series: cell-based, mouse. As to the method:
Mouse-derived B16F10 melanoma cells were incubated in the DMEM medium supplemented with 10% (v/v) FBS and 1% streptomycin–penicillin solution at 37 °C and 5% CO2. Sub-culture was conducted by detaching the cells with trypsin-EDTA after reaching 90% confluence.
The effects of LOMIX and each LO compound on cell survival were determined using the MTT assay. B16F10 melanoma cells (100 μL of 1.5 × 10^5 cells/mL) were seeded in a 96-well plate with 100 μL of the testing sample [LOMIX (0–200 μg/mL) or LO (0–50 μM)]. After 2 days, MTT solution (10 μL) was added to each well, and cells were incubated for an additional 3 h in the dark. The reaction was stopped by adding 100 μL of 10% SDS complemented with 0.01 M HCl. Moreover, 5000 cells/well of B16F10 melanoma cells were incubated in 96-well plates to check the cytotoxicity of LOMIX in the presence of α-MSH. The 10 μL of MTT solution was added to the cells incubated with the LOMIX (50 and 100 μg/mL) and α-MSH (100 nM) for 0, 24, and 48 h. Subsequently, the stopping solution (100 μL) (10% SDS solution with 0.01 M HCl) was added after 3 h incubation. The absorbance was measured at 570 nm using Synergy™ HTX (Biotek Instruments Inc., Winooski, VT, USA).

On to [1–9-NαC]-linusorb B2 [LO2], for which the “cell viability (MTT)” value (25 μM, B16F10 melanoma cells, 48 h) is reported as “not altered”. Also, under “50 μM, B16F10 cells, 48 h”, the “cell survival (MTT)” value was “declined”. In addition, where the note is “12.5 and 25 μM, B16F10 cell lines”, the toxicity result is reported as “without toxicity”.
